# In patent US8114406B2, “Peptides and their utility in modulation of behavior of cells expressing α3β1 integrins” (The United States of America as represented by the …, priority 1999, dated 2012):
# System: HDME cells
# Assay: HDME cell proliferation
# Assay type: cell-based, human
# Method: FIGS. 19A, 19B, 19C, 19D and 19E display the modulation of endothelial cell proliferation by an α3β1 integrin binding peptide from TSP1. FIG. 19A: Proliferation of BAE cells was assayed in the presence of the indicated concentrations of TSP1 peptide 678 (FQGVLQNVRFVF (SEQ ID NO:6), ●) or the control peptides 686 (FQGVLQAVRFVF (SEQ ID NO:10), ▴), and 690 (FQGVLQNVAFVF (SEQ ID NO:11), ◯). Briefly, 100 μl of a 5×10^4 cell/ml suspension of BAE cells were seeded in triplicate into 96 well tissue culture plate in DMEM medium containing 1% FCS, 10 ng/ml of FGF2 and peptides at 1-40 μM concentrations. Cells were incubated for 72 h, and proliferation was measured using the Celltiter tetrazolium assay (Promega). FIG. 19B: HUVE cell proliferation was measured at 72 h for cells plated on wells coated with the indicated concentrations of TSP1 (solid bars) or 1 μg/ml of antibody P1B5 (anti-α3β1 integrin) (striped bar) or P1D6 (anti-α5 integrin) in medium 199 containing 5% FCS (striped bar). […] Proliferation was determined at 72 h, and is presented as a percent of the control, mean±S.D., n=3 for experimental points and n=6 for control. FIG. 19D: HUVE cell proliferation was determined in the presence of the indicated concentrations of TSP1 peptide 678 immobilized on the substrate (solid bars) or added in solution (striped bars). […]
substance,measurement,value
TSP1: calcium replete thrombospondin-1 purified from human platelets,"HDME cell proliferation stimulated by FGF2, soluble substance",inhibited
